Read-outs that look alike come from different tables or passages of the source.
Experiments:
[1] = biological target: BRAF (Homo sapiens (Human), UniProt P15056); experiment: BRAF kinase activity assay (ADP-Glo)
[2] = biological target: CRAF (Homo sapiens, UniProt P04049); experiment: CRAF kinase activity assay (ADP-Glo)
[3] = tested on: pERK in HCT-116 cells (KRAS G13D); experiment: Phospho-ERK inhibition (AlphaLISA SureFire Ultra p-ERK 1/2), HCT116; conditions: for HCT116 pERK % Ymin (lowest value of the IC50 curve): Ymin above −20% = minimal or no paradoxical activation
Method in brief: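 Cells plated in RPMI-1640 with 5% FBS, kept overnight at 37° C, then treated 1 h with ten-point dilutions (top usually 10 μM; 0.5% DMSO). Lysate p-ERK1/2 (Thr202/Tyr204) read by AlphaLISA SureFire Ultra. % inhibition set against DMSO after subtracting the trametinib background; IC50 from four-parameter fit.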

Protein sequences, listed by entry. Tags and fused reporters are not part of them.
UniProt P15056, whole entry: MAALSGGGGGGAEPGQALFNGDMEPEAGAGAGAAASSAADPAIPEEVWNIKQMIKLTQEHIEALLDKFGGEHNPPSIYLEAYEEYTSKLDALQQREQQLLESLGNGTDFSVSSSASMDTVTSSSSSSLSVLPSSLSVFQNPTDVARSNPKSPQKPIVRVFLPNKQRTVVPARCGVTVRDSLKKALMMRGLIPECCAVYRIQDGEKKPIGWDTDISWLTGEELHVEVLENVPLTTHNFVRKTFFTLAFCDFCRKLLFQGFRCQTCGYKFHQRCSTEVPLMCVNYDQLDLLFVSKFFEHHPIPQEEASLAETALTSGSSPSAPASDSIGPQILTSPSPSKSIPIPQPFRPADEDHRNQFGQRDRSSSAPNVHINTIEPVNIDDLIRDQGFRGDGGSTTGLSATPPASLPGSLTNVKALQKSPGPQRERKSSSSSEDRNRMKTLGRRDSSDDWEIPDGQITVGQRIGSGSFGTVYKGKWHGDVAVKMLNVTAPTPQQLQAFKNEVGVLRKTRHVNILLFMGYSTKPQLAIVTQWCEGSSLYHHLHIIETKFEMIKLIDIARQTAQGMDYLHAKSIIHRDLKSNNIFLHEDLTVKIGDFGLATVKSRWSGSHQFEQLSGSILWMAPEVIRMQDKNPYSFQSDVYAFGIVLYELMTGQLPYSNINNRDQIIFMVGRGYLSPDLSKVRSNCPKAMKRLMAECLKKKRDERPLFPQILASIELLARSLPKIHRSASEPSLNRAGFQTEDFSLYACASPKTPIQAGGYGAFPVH
UniProt P04049, whole entry: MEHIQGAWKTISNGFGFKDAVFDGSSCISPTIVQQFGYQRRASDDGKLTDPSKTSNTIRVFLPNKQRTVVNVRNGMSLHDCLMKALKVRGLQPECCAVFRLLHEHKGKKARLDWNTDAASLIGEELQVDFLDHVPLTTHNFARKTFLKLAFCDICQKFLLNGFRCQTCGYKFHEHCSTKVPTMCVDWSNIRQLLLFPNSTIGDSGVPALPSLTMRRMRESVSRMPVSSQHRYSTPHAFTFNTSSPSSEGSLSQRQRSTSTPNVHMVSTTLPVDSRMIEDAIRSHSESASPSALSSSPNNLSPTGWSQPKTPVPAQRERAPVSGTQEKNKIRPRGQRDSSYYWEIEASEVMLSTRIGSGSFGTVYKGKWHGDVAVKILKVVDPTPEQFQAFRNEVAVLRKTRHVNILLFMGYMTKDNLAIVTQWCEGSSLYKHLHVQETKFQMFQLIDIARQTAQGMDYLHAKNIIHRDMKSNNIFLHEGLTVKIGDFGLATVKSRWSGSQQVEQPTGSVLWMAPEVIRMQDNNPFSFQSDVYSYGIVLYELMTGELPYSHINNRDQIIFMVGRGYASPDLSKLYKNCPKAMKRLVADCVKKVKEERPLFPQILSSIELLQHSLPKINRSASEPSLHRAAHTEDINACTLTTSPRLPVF

[4] = read-out: Kinase IC50 (nM) BRAF
[5] = read-out: Kinase IC50 (nM) CRAF
[6] = read-out: HCT116 pERK IC50, HCT116 cells, class symbol before the bracket
[7] = read-out: Kinase IC50 (nM), BRAF biochemical kinase assay, BRAF
[8] = read-out: Kinase IC50 (nM), CRAF biochemical kinase assay, CRAF
[9] = read-out: HCT116 pERK IC50, HCT116 cells
[10] = lowest % inhibition value of the IC50 curve, HCT116
[11] = read-out: HCT116 pERK IC50 in μM, HCT116 cells, 1 h treatment
[12] = read-out: HCT116 pERK IC50, HCT116 cells, class symbol

IC50 [1, 4] [nM]	IC50 [2, 5] [nM]	IC50 [3, 6] [µM]	IC50 [1, 7] [nM]	IC50 [2, 8] [nM]	HCT116 pERK % Ymin (lowest value of the IC50 curve) ([3]; HCT116 cells) [%]	IC50 [3, 9] [µM]	Structure (SMILES)	HCT116 pERK Ymin % ([3]; HCT116 cells, Ymin in brackets) [%]	also measured
< 1	10 to 50	0.5 to 1	–	–	–	–	Cc1c(Cl)cccc1S(=O)(=O)Nc1ccc(F)c(Nc2ncnc3ccc(-n4nc(C(=O)N5CCC[C@@H](O)C5)c5ccccc54)nc23)c1F	−11	–
–	–	–	1 to 10	< 10	−13	< 0.5	O=S(=O)(Nc1ccc(F)c(Nc2ncnc3ccc(-n4nnc5c(F)cccc54)nc23)c1F)c1cccc(Cl)c1Cl	–	–
–	–	–	–	–	–	–	Nc1cccc2c1ncn2-c1ccc2ncnc(Nc3c(F)ccc(NS(=O)(=O)c4cccc(Cl)c4Cl)c3Cl)c2n1	–	IC50 ([1]; read-out: Kinase IC50 (nM) BRAF, Table 5): > 10 nM; IC50 ([2]; read-out: Kinase IC50 (nM) CRAF, Table 5): 10 to 50 nM; HCT116 pERK Ymin % ([3]; lowest value of the curve, HCT116, Table 5): −10%; IC50 ([3]; read-out: HCT116 pERK IC50, HCT116 cells, Table 5): < 0.5 µM
< 1	10 to 50	< 0.5	–	–	–	–	Cc1c(Cl)cccc1S(=O)(=O)Nc1ccc(F)c(Nc2ncnc3ccc(-n4nc(C(=O)N5CC[C@H](CO)C5)c5ccccc54)nc23)c1F	−0.4	–
–	–	–	> 10	> 50	−3	< 0.5	CO[C@H]1CCCN(c2cccc3c2nnn3-c2ccc3ncnc(Nc4c(F)ccc(NS(=O)(=O)c5cccc(Cl)c5Cl)c4F)c3n2)C1	–	–
< 1	10 to 50	< 0.5	–	–	–	–	Cc1c(F)cccc1S(=O)(=O)Nc1ccc(F)c(Nc2ncnc3ccc(-n4nc(C(=O)N5CCC[C@H](O)C5)c5ccccc54)nc23)c1F	−2.2	–
–	–	–	> 10	> 50	−10	< 0.5	CC(C)(C)OC(=O)N1CCN(c2cccc3c2ncn3-c2ccc3ncnc(Nc4c(F)ccc(NS(=O)(=O)c5cccc(Cl)c5Cl)c4F)c3n2)CC1	–	–
< 1	10 to 50	< 0.5	–	–	–	–	Cc1c(F)cccc1S(=O)(=O)Nc1ccc(F)c(Nc2ncnc3ccc(-n4nc(C(=O)N(C)C[C@H](O)CO)c5ccccc54)nc23)c1F	−9.0	–
1 to 10	10 to 50	1 to 10	–	–	–	–	Cc1c(F)cccc1S(=O)(=O)Nc1ccc(F)c(Nc2ncnc3ccc(-n4nc(C(=O)NC[C@H](O)CO)c5ccccc54)nc23)c1F	−14.9	–
–	–	–	1 to 10	10 to 50	6	< 0.5	CC1(O)CCN(c2cccc3c2nnn3-c2ccc3ncnc(Nc4c(F)ccc(NS(=O)(=O)c5cccc(Cl)c5Cl)c4F)c3n2)CC1	–	–
–	–	–	< 1	< 10	0	< 0.5	CC1(N)CCN(c2cccc3c2nnn3-c2ccc3ncnc(Nc4c(F)ccc(NS(=O)(=O)c5cccc(Cl)c5Cl)c4F)c3n2)CC1	–	–
1 to 10	> 50	< 0.5	–	–	–	–	Cc1c(F)cccc1S(=O)(=O)Nc1ccc(F)c(Nc2ncnc3ccc(-n4nc(C(=O)NCc5ccncc5)c5ccccc54)nc23)c1F	−4.8	–
1 to 10	10 to 50	1 to 10	–	–	–	–	O=S(=O)(Nc1ccc(F)c(Nc2ncnc3ccc(-n4cnc5c(CN6CCOC[C@H]6CO)cccc54)nc23)c1F)c1ccccc1Cl	2	–
–	–	–	1 to 10	10 to 50	−11	< 0.5	O=S(=O)(Nc1ccc(F)c(Nc2ncnc3ccc(-n4cnc5c(N6CCC[C@@H](O)C6)cccc54)nc23)c1F)c1cccc(Cl)c1Cl	–	–
1 to 10	10 to 50	< 0.5	–	–	–	–	Cc1c(F)cccc1S(=O)(=O)Nc1ccc(F)c(Nc2ncnc3ccc(-n4nc(C(=O)N[C@H]5C[C@@H](O)C5)c5ccccc54)nc23)c1F	10	–
–	–	–	> 10	> 50	−5	1 to 10	Cc1c(F)cccc1S(=O)(=O)Nc1ccc(F)c(Nc2ncnc3ccc(-n4cnc(-c5ccccn5)c4)nc23)c1F	–	–
1 to 10	10 to 50	1 to 10	–	–	–	–	O=S(=O)(Nc1ccc(F)c(Nc2ncnc3ccc(-n4cnc5c(CN6CCOC[C@@H]6CO)cccc54)nc23)c1F)c1ccccc1Cl	−7	–
–	–	–	1 to 10	10 to 50	−10	< 0.5	CC(C)C(=O)N1CCN(c2cccc3c2ncn3-c2ccc3ncnc(Nc4c(F)ccc(NS(=O)(=O)c5cccc(Cl)c5Cl)c4F)c3n2)CC1	–	–
1 to 10	10 to 50	< 0.5	–	–	–	–	Cc1c(F)cccc1S(=O)(=O)Nc1ccc(F)c(Nc2ncnc3ccc(-n4ncc5c(-c6ccncc6)cccc54)nc23)c1F	3.3	–

IC50 [1, 4] [nM]	IC50 [2, 5] [nM]	IC50 [3, 6] [µM]	IC50 [1, 7] [nM]	IC50 [2, 8] [nM]	HCT116 pERK % Ymin (lowest value of the IC50 curve) ([3]; HCT116 cells) [%]	IC50 [3, 9] [µM]	Structure (SMILES)	HCT116 pERK Ymin % ([3]; HCT116 cells, Ymin in brackets) [%]	also measured
–	–	–	–	–	–	–	Cc1c(F)cccc1S(=O)(=O)Nc1ccc(F)c(Nc2ncnc3ccc(-n4nnc5c(N)cccc54)nc23)c1F	–	IC50 ([1]; read-out: Kinase IC50 (nM) BRAF, tested form: HCl): < 1 nM; IC50 ([2]; read-out: Kinase IC50 (nM) CRAF, tested form: HCl): < 10 nM; HCT116 pERK Ymin % ([3]; HCT116 cells, Ymin in brackets, tested form: HCl): −7.4%; IC50 ([3]; read-out: HCT116 pERK IC50, HCT116 cells, class symbol before the bracket, tested form: HCl): < 0.5 µM
< 1	< 10	< 0.5	–	–	–	–	Cc1c(F)cccc1S(=O)(=O)Nc1ccc(F)c(Nc2ncnc3ccc(-n4nc(C(=O)N(C)Cc5ccccn5)c5ccccc54)nc23)c1F	1.1	–
1 to 10	> 50	< 0.5	–	–	–	–	Cc1c(F)cccc1S(=O)(=O)Nc1ccc(F)c(Nc2ncnc3ccc(-n4nc(C(=O)N(C)C(C)c5ccccn5)c5ccccc54)nc23)c1F (stereo not shown)	−2.9	–
–	–	–	1 to 10	10 to 50	5	< 0.5	CCC1(O)CCN(c2cccc3c2ncn3-c2ccc3ncnc(Nc4c(F)ccc(NS(=O)(=O)c5ccc(OC)c(F)c5C)c4F)c3n2)CC1	–	–
< 1	10 to 50	< 0.5	–	–	–	–	Cc1c(F)cccc1S(=O)(=O)Nc1ccc(F)c(Nc2ncnc3ccc(-n4nc(C(=O)N5CCO[C@@H](CO)C5)c5ccccc54)nc23)c1F	4.6	–
–	–	–	–	–	–	–	C[C@H]1CNCCN1C(=O)c1nn(-c2ccc3ncnc(Nc4c(F)ccc(NS(=O)(=O)c5cccc(Cl)c5Cl)c4F)c3n2)c2ccccc12	–	IC50 ([1]; read-out: Kinase IC50 (nM) BRAF, tested form: formic acid salt): < 1 nM; IC50 ([2]; read-out: Kinase IC50 (nM) CRAF, tested form: formic acid salt): 10 to 50 nM; HCT116 pERK Ymin % ([3]; HCT116 cells, Ymin in brackets, tested form: formic acid salt): 7.2%; IC50 ([3]; read-out: HCT116 pERK IC50, HCT116 cells, class symbol before the bracket, tested form: formic acid salt): < 0.5 µM
–	–	–	1 to 10	10 to 50	−3	< 0.5	O=S(=O)(Nc1ccc(F)c(Nc2ncnc3ccc(-c4ncc(CO)s4)nc23)c1F)c1cccc(Cl)c1Cl	–	–
–	–	–	1 to 10	10 to 50	10	< 0.5	O=S(=O)(Nc1ccc(F)c(Nc2ncnc3ccc(-n4cnc5c(N6CC(CCO)C6)cccc54)nc23)c1F)c1cccc(Cl)c1Cl	–	–
–	–	–	1 to 10	10 to 50	4	0.5 to 1	O=S(=O)(Nc1ccc(F)c(Nc2ncnc3ccc(-c4cncnc4)nc23)c1F)c1cccc(Cl)c1Cl	–	–
–	–	–	–	–	–	–	Cc1c(F)cccc1S(=O)(=O)Nc1ccc(F)c(Nc2ncnc3ccc(-n4nc(C(=O)N5CC6CC(C5)N6)c5ccccc54)nc23)c1F	–	IC50 ([1]; read-out: Kinase IC50 (nM) BRAF, tested form: formate): < 1 nM; IC50 ([2]; read-out: Kinase IC50 (nM) CRAF, tested form: formate): > 50 nM; HCT116 pERK Ymin % ([3]; HCT116 cells, Ymin in brackets, tested form: formate): −0.4%; IC50 ([3]; read-out: HCT116 pERK IC50, HCT116 cells, class symbol before the bracket, tested form: formate): < 0.5 µM
–	–	–	1 to 10	10 to 50	−8	< 0.5	COC1(C)CCN(c2cccc3c2ncn3-c2ccc3ncnc(Nc4c(F)ccc(NS(=O)(=O)c5cccc(Cl)c5Cl)c4F)c3n2)CC1	–	–
–	> 50	–	–	–	–	–	Cc1c(S(=O)(=O)Nc2ccc(F)c(Nc3ncnc4ccc(-n5cnc6ccccc65)nc34)c2F)ccc(Cl)c1F	–	HCT116 pERK Ymin % [3, 10]: 0.4%; IC50 [3, 11]: 1 to 10 µM
–	< 10	–	–	–	–	–	Cc1ccccc1S(=O)(=O)Nc1ccc(F)c(Nc2ncnc3ccc(-n4cnc5ccccc54)nc23)c1F	–	HCT116 pERK Ymin % [3, 10]: −0.75%; IC50 [3, 11]: 1 to 10 µM
–	< 10	–	–	–	–	–	Cc1c(S(=O)(=O)Nc2ccc(F)c(Nc3ncnc4ccc(-n5cnc6ccccc65)nc34)c2F)ccc(F)c1F	–	HCT116 pERK Ymin % [3, 10]: −9%; IC50 [3, 11]: 0.5 to 1 µM
–	< 10	–	–	–	–	–	O=S(=O)(Nc1ccc(F)c(Nc2ncnc3ccc(-n4cnc5ccccc54)nc23)c1F)c1cccc(Cl)c1Cl	–	HCT116 pERK Ymin % [3, 10]: 4%; IC50 [3, 11]: < 0.5 µM
–	–	–	–	–	–	–	CN(CCc1ccccn1)S(=O)(=O)c1cn(-c2ccc3ncnc(Nc4c(F)ccc(NS(=O)(=O)c5cccc(Cl)c5Cl)c4F)c3n2)c2ccccc12	–	IC50 [3, 12]: < 0.5 µM
–	–	–	–	–	–	–	Cc1cccc(S(=O)(=O)Nc2ccc(F)c(Nc3ncnc4ccc(-n5cnc6c(N)cccc65)nc34)c2F)c1Cl	–	IC50 [3, 12]: < 0.5 µM
–	–	–	–	–	–	–	O=S(=O)(Nc1ccc(F)c(Nc2ncnc3ccc(-n4cc(S(=O)(=O)N5CCC[C@H](O)C5)c5ccccc54)nc23)c1F)c1cccc(Cl)c1Cl	–	IC50 [3, 12]: < 0.5 µM

Structure (SMILES)	IC50 [1, 4] [nM]	IC50 [2, 5] [nM]	IC50 [3, 6] [µM]	IC50 [1, 7] [nM]	IC50 [2, 8] [nM]	HCT116 pERK % Ymin (lowest value of the IC50 curve) ([3]; HCT116 cells) [%]	IC50 [3, 9] [µM]	HCT116 pERK Ymin % ([3]; HCT116 cells, Ymin in brackets) [%]	also measured
CNc1nnc(-c2nn(-c3ccc4ncnc(Nc5c(F)ccc(NS(=O)(=O)c6cccc(Cl)c6Cl)c5F)c4n3)c3ccccc23)o1	1 to 10	10 to 50	1 to 10	–	–	–	–	1	–

Reference: US12139488B2, “Pyrido[3,2-d]pyrimidine compounds uses thereof for treating a proliferative disease” (Universite de Montreal, priority 2021, dated 2024)
